# Patent US20130096170A1 (priority 2011, published 2013)
# Values joined by “and” are separate entries in the source; they are usually repeats but may differ in a detail not shown here. Identical values can stand only once. Like-named read-outs stand apart in the source and are kept apart here.
# How the values were obtained:
# [1] = tested on: intubated and mechanically ventilated pediatric subjects 2 to <17 years
# [2] = tested on: intubated and mechanically ventilated pediatric subjects 12 to <24 months
# [3] = tested on: initially intubated and mechanically ventilated neonates ≥28 to ≤44 weeks gestational age
# [4] = tested on: pediatric subjects 1 month to <17 years
# [5] = Dose Level 1, full evaluable population
# [6] = Dose Level 2, full evaluable population
# [7] = Dose Level 3, full evaluable population
# [8] = Dose Level 4, full evaluable population
structure (smiles),measurement,setting,value
Cc1cccc([C@H](C)c2cnc[nH]2)c1C [dexmedetomidine],median time to successful extubation from start of DEX infusion,[1]; [5],0.6 h
same,"total amount of rescue midazolam while intubated, mean",[1]; [5],1.292 mg
same,"total amount of rescue midazolam while intubated, median",[1]; [5],0 mg
same,"weight-adjusted total amount of rescue midazolam while intubated, median",[1]; [5],0 mg/kg
same,median time to first dose of rescue medication for sedation and analgesia,"[1]; Dose Level 1, full evaluable population (Table 25)",1.0 h
same,"weight-adjusted total amount of rescue midazolam while intubated, mean","[1]; Dose Level 2 (LD 0.50/CD 0.4 μg/kg/hr), full evaluable population",0.087 mg/kg
same,median time to first dose of rescue medication for sedation and analgesia,"[1]; Dose Level 2, Table 26 (title: full evaluable population; b267: safety population)",2.5 h
same,median time to successful extubation from start of DEX infusion,[1]; [6],0.8 h
same,"total amount of rescue midazolam while intubated, mean",[1]; [6],1.369 mg
same,"total amount of rescue midazolam while intubated, median",[1]; [6],1.000 mg
same,"weight-adjusted total amount of rescue midazolam while intubated, median",[1]; [6],0.028 mg/kg
same,median time to first dose of rescue medication for sedation and analgesia,"[1]; Dose Level 2, full evaluable population (Table 25)",2.2 h
same,"weight-adjusted total amount of rescue midazolam while intubated, mean","[1]; Dose Level 3 (LD 1.00/CD 0.7 μg/kg/hr), full evaluable population",0.109 mg/kg
same,median time to first dose of rescue medication for sedation and analgesia,"[1]; Dose Level 3, Table 26 (title: full evaluable population; b267: safety population)",2.4 h
same,median time to successful extubation from start of DEX infusion,[1]; [7],1.7 h
same,"total amount of rescue midazolam while intubated, mean",[1]; [7],2.141 mg
same,"total amount of rescue midazolam while intubated, median",[1]; [7],0 mg
same,"weight-adjusted total amount of rescue midazolam while intubated, median",[1]; [7],0 mg/kg
same,median time to first dose of rescue medication for sedation and analgesia,"[1]; Dose Level 3, full evaluable population (Table 25)",2.5 h
same,"weight-adjusted total amount of rescue midazolam while intubated, mean","[1]; Dose Level 4 (LD 1.00/CD 2.00 μg/kg/hr), full evaluable population",0.045 mg/kg
same,median time to first dose of rescue medication for sedation and analgesia,"[1]; Dose Level 4, Table 26 (title: full evaluable population; b267: safety population)",7.8 h
same,median time to successful extubation from start of DEX infusion,[1]; [8],6.8 h
same,"total amount of rescue midazolam while intubated, mean",[1]; [8],0.769 mg
same,"total amount of rescue midazolam while intubated, median",[1]; [8],0 mg
same,"weight-adjusted total amount of rescue midazolam while intubated, median",[1]; [8],0 mg/kg
same,median time to first dose of rescue medication for sedation and analgesia,"[1]; Dose Level 4, full evaluable population (Table 25)",7.8 h
same,median time to extubation,"[1]; Dose Levels 1, 2 and 3, full evaluable population",0.6 to 1.7 h
same,subjects who received rescue midazolam for sedation while intubated,"[1]; Group I (≥2 to <6 y), Dose Level 1 (LD 0.25/CD 0.2 μg/kg/hr), full evaluable population",50.0 n (%)
same,subjects who received rescue midazolam for sedation while intubated,"[1]; Group I (≥2 to <6 y), Dose Level 1 (LD 0.25/CD 0.2 μg/kg/hr), full evaluable population, listed as Dex",4 (50.0) n (%)
same,subjects who received rescue midazolam for sedation while intubated,"[1]; Group I (≥2 to <6 y), Dose Level 2 (LD 0.50/CD 0.4 μg/kg/hr), full evaluable population",66.7 n (%)
same,subjects who received rescue midazolam for sedation while intubated,"[1]; Group I (≥2 to <6 y), Dose Level 2 (LD 0.50/CD 0.4 μg/kg/hr), full evaluable population, listed as Dex",4 (66.7) n (%)
same,subjects who received rescue midazolam for sedation while intubated,"[1]; Group I (≥2 to <6 y), Dose Level 3 (LD 1.00/CD 0.7 μg/kg/hr), full evaluable population",50.0 n (%)
same,subjects who received rescue midazolam for sedation while intubated,"[1]; Group I (≥2 to <6 y), Dose Level 3 (LD 1.00/CD 0.7 μg/kg/hr), full evaluable population, listed as Dex",3 (50.0) n (%)
same,subjects who received rescue midazolam for sedation while intubated,"[1]; Group I (≥2 to <6 y), Dose Level 4 (LD 1.00/CD 2.00 μg/kg/hr), full evaluable population",16.7 n (%)
same,subjects who received rescue midazolam for sedation while intubated,"[1]; Group I (≥2 to <6 y), Dose Level 4 (LD 1.00/CD 2.00 μg/kg/hr), full evaluable population, listed as Dex",1 (16.7) n (%)
same,subjects who received rescue midazolam for sedation while intubated,"[1]; Group II (≥6 to <17 y), Dose Level 1 (LD 0.25/CD 0.2 μg/kg/hr), full evaluable population",37.5 n (%)
same,subjects who received rescue midazolam for sedation while intubated,"[1]; Group II (≥6 to <17 y), Dose Level 1 (LD 0.25/CD 0.2 μg/kg/hr), full evaluable population, listed as Dex",3 (37.5) n (%)
same,subjects who received rescue midazolam for sedation while intubated,"[1]; Group II (≥6 to <17 y), Dose Level 2 (LD 0.50/CD 0.4 μg/kg/hr), full evaluable population",42.9 n (%)
same,subjects who received rescue midazolam for sedation while intubated,"[1]; Group II (≥6 to <17 y), Dose Level 2 (LD 0.50/CD 0.4 μg/kg/hr), full evaluable population, listed as Dex",3 (42.9) n (%)
same,subjects who received rescue midazolam for sedation while intubated,"[1]; Group II (≥6 to <17 y), Dose Level 3 (LD 1.00/CD 0.7 μg/kg/hr), full evaluable population",25.0 n (%)
same,subjects who received rescue midazolam for sedation while intubated,"[1]; Group II (≥6 to <17 y), Dose Level 3 (LD 1.00/CD 0.7 μg/kg/hr), full evaluable population, listed as Dex",2 (25.0) n (%)
same,subjects who received rescue midazolam for sedation while intubated,"[1]; Group II (≥6 to <17 y), Dose Level 4 (LD 1.00/CD 2.00 μg/kg/hr), full evaluable population",25.0 n (%)
same,subjects who received rescue midazolam for sedation while intubated,"[1]; Group II (≥6 to <17 y), Dose Level 4 (LD 1.00/CD 2.00 μg/kg/hr), full evaluable population, listed as Dex",2 (25.0) n (%)
same,subjects who received rescue midazolam for sedation while intubated,"[1]; total age group, Dose Level 1, N = 16, full evaluable population",7 (43.8) n (%)
same,subjects who received rescue midazolam for sedation while intubated,"[1]; total age group, Dose Level 2, N = 13, full evaluable population",7 (53.8) n (%)
same,subjects who received rescue midazolam for sedation while intubated,"[1]; total age group, Dose Level 3, N = 14, full evaluable population",5 (35.7) n (%)
same,subjects who received rescue midazolam for sedation while intubated,"[1]; total age group, Dose Level 4, N = 14, full evaluable population",3 (21.4) n (%)
same,time of (first) rescue midazolam after start of infusion,"[2]; Subject 01-0001, dose level 2",1.2 h
same,time of (first) rescue midazolam after start of infusion,"[2]; Subject 01-0003, dose level 1",5.27 h
same,time of extubation from the start of study drug,"[2]; Subject 01-0006, dose level 1",17.7 h
same,time of extubation from the start of study drug,"[2]; Subject 01-0007, dose level 2",26.27 h
same,median absolute time in target UMSS range 2 to 4,[2]; dose level 1,3.6 h
same,median absolute time with total UMSS score<2,[2]; dose level 1,2.5 h
same,median total FLACC score,[2]; dose level 1,1.6
same,time in target UMSS range 2 to 4,[2]; dose level 1,58.9 % of the time
same,time with total UMSS score<2,[2]; dose level 1,41.1 % of the time
same,median absolute time in target UMSS range 2 to 4,[2]; dose level 2,5.9 h
same,median absolute time with total UMSS score<2,[2]; dose level 2,0.3 h
same,median total FLACC score,[2]; dose level 2,4.4
same,time in target UMSS range 2 to 4,[2]; dose level 2,95.1 % of the time
same,time with total UMSS score<2,[2]; dose level 2,4.9%
same,effectiveness at sedating and keeping subjects comfortable,[2]; maintenance 0.5 μg/kg/hr and 0.75 μg/kg/hr,moderately effective
same,subjects who received rescue medication for analgesia during infusion,"[3]; age Group I, dose level 1 (0.05 μg/kg + 0.05 μg/kg/hr)",16.7%
same,subjects who required rescue medication for analgesia,"[3]; age Group I, dose level 1 (original 30 patients)",1 subjects
same,subjects who received rescue medication for analgesia during infusion,"[3]; age Group I, dose level 2 (additional cohort)",16.7%
same,subjects who required rescue medication for analgesia,"[3]; age Group I, dose levels 1 and 2",2 subjects
same,subjects who received rescue medication for analgesia during infusion,[3]; age Group II (term neonates),58.3%
same,subjects who required rescue medication for analgesia,[3]; age Group II (term neonates),14 subjects
same,subjects who received rescue midazolam for sedation during infusion,[3]; age Group II (≥36 to ≤44 wk GA),16.7%
same,mean dose of rescue midazolam,[3]; age Group II subjects given rescue midazolam,0.22 mg/kg and 0.22 ± 0.26 mg/kg
same,effectiveness at sedating,"[3]; critically ill, intubated, mechanically ventilated premature infants ≥28 to <36 weeks (age Group I)",effective
same,patients who received rescue morphine,[3]; in vivo,21%
same,subjects requiring rescue midazolam or morphine during infusion,[3]; in vivo,None
same,subjects with moderate and severe treatment-related adverse events,"[4]; age group I, low dose",27.0%
same,"treatment-related agitation, subjects","[4]; age group I, low dose",3.2%
same,"treatment-related bradycardia, subjects","[4]; age group I, low dose",3.2%
same,"treatment-related hypertension, subjects","[4]; age group I, low dose",3.2%
same,"treatment-related hypotension, subjects","[4]; age group I, low dose",4.8%
same,subjects with moderate and severe treatment-related adverse events,"[4]; age group II, low dose",30.8%
same,deaths (all unrelated to dexmedetomidine),[4]; all subjects,4
same,subjects with treatment-related adverse events leading to discontinuation of dexmedetomidine,[4]; all subjects (seven subjects),4.0%
same,subjects reporting severe treatment-related adverse events,"[4]; overall (5/175), all in low dose groups",2.9%
